Key:
[1] = target: human CB1 receptor (Homo sapiens, UniProt P21554); experiment: Human CB1 receptor binding assay ([3H]CP55940, membranes of CB1R-expressing CHO cells); conditions: read-out: Ki, CB1 receptor, [3H]CP55940 0.5 nM
[2] = target: T1, human CB2R (Homo sapiens, UniProt P34972); experiment: Human CB2 receptor binding inhibition ([3H]CP55940, membranes of CB2R-expressing CHO cells); conditions: read-out: Ki, CB2 receptor, [3H]CP55940 0.5 nM
[3] = target: T1, human CB2R; experiment: CB2 receptor-mediated suppression of forskolin-stimulated cAMP synthesis (agonistic activity); type: cell-based; conditions: read-out: IC50, inhibition of forskolin-stimulated cAMP synthesis; CHO cells expressing human CB2R, forskolin 4 μM
Protocol: The CHO cells expressing human CB2R were incubated with test compounds for 15 min. After the incubation, forskolin (final concentration of 4 μM, Sigma) was added and the cells were incubated for 20 min at 37° C. The reaction was stopped by the addition of 1N HCl and the amount of cAMP in the cell supernatant was measured using an EIA kit (Amersham Pharmacia. Biotech) according to the manufacture's protocol. The cAMP amount increased by forskolin compared to that in the absence of forskolin was defined as 100%, and the IC50 value of each test compound was determined as the concentration at which 50% of the forskolin-stimulated cAMP synthesis was inhibited.

By UniProt entry, the sequences of proteins in these tests, tags left out.
UniProt P21554, whole entry: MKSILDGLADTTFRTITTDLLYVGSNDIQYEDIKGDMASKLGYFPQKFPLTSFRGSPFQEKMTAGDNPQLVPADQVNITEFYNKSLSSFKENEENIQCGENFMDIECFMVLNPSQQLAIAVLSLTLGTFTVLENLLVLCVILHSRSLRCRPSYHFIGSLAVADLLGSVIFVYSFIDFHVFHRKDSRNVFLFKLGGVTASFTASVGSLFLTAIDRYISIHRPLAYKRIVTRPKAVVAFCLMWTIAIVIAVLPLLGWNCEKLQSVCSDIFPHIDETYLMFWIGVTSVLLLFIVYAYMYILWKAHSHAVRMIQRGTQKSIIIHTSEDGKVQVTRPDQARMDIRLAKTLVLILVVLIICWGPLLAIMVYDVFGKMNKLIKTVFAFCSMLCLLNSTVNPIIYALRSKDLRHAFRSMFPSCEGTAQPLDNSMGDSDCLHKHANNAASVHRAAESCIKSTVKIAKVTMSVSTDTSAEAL
UniProt P34972, whole entry: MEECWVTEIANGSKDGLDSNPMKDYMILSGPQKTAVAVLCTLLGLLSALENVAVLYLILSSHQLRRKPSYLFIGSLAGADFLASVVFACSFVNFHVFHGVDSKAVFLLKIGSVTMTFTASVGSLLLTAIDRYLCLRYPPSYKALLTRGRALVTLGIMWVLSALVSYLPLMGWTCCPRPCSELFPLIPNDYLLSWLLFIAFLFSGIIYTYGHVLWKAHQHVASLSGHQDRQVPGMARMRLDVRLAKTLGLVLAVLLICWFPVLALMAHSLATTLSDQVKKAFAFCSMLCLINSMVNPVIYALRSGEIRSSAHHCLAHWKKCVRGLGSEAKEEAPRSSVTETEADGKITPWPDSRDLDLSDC

## CCCCn1c2c(cc(C(=O)NCCc3ccccc3)c1=O)CCCCCCCC2
[1]
  Ki: > 5000 nM
[2]
  Ki: 4 nM
[3]
  IC50: 1.3 nM
